From US20110245288A1 (priority 2010, published 2011)

Legend:
[1] = Plasma stability studies (bioconversion to parent drug); settings: 37° C., conversion of prodrug to buprenorphine
[2] = In vitro skin permeation studies of buprenorphine prodrugs (Example 1); settings: human skin in vitro, FIG. 1

Question: For `CO[C@]12CC[C@@]3(C[C@@H]1[C@](C)(O)C(C)(C)C)[C@H]1Cc4ccc(OC(=O)OCC[C@H](O)CO)c5c4[C@@]3(CCN1CC1CC1)[C@H]2O5`, which “Plasma hydrolysis (k)” value [1] is on record?
Answer: The value was -0.79 h⁻¹.

Question: What about the “share of drug observed in the receiver solution after passing through the skin that was Formula IV” value [2] of the same molecule?
Answer: Its value is 5.7%.
